Source: patent US20140348942A1, “Treatments for gastrointestinal disorders” (published 2014)

Biological target: Guanylate cyclase C (GC-C) on human T84 cells (human), P25092
Test: cell-based or functional assay

CCELCCNPACTGCY (modifications not checked) [Peptide 1] showed an EC50, cGMP response in T84 cells, pH 5 of 13.4 nM, an EC50, cGMP response in T84 cells, pH 8 of 114 nM and a Ratio EC50 pH 8/EC50 pH 5 of 8.5.
